Source: US20130109735A1 (SIMON FRASER UNIVERSITY, priority 2009, published 2013)

Chains of the proteins cited; added tags and fusions are not shown. Residues count along the entry.
UniProt O43451, 356-737 limits assumed: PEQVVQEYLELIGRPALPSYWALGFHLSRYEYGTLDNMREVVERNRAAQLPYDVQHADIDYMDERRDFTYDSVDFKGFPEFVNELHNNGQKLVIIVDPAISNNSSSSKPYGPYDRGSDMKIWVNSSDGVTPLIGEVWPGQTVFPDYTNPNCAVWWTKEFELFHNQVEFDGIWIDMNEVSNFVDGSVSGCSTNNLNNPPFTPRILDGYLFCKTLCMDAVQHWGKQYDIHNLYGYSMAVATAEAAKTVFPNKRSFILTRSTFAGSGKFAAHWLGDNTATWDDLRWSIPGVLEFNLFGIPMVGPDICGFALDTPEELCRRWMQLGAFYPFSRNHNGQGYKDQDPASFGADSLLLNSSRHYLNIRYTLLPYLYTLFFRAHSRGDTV

Target: T1, recombinant N-terminal domain of Maltase-Glucoamylase (ntMGAM) (Homo sapiens, UniProt O43451)
T1 construct: recombinant N-terminal domain of Maltase-Glucoamylase (ntMGAM)
Assay: MGA inhibition, glucose oxidase assay with maltose as the substrate (Table 1)
Type: biochemical
Protocol: Activity of recombinant N-terminal domain of Maltase-Glucoamylase (ntMGAM) was determined using the glucose oxidase assay^22 to follow the production of glucose from maltose upon addition of the enzyme (0.8 nM). A no-inhibitor control and five different inhibitor concentrations were used in combination with 7 different maltose concentrations (ranging from 1.5 to 24 mM). A reaction time of 60 minutes at 37° C. was employed. […] Values of Ki and standard deviations were determined by the program GraFit 4.0.14 (Erithacus Software)^22 which employs nonlinear fitting of the data for each inhibitor concentration to the Michaelis-Menten equation.

Compound | Ki [µM] | Ki (MGA, maltose as the substrate, read-out: Ki) [µM]
O=S(=O)([O-])O[C@@H]([C@H](O)[C@H](O)[C@@H](O)CO)[C@H](O)C[Se@+]1C[C@@H](O)[C@H](O)[C@H]1CO (racemic) [Compound 34] | 0.08 | –
O=S(=O)([O-])OC(C(O)C[Se+]1CC(O)C(O)C1CO)C(O)C(O)C(O)CO (racemic) [Compound 46, 1,4-Dideoxy-1,4-[[2S,3S,4R,5R,6S]-2,4,5,6,7-pentahydroxy-3-(sulfooxy)heptyl]-(R/S)-epi-selenoniumylidine]-D-arabinitol Inner Salt] | – | 7.2 ± 0.7

Structures can show the parent of a compound that is named as a salt. Where two headings read alike, the source gives them in different places.
